{
  "source": "patent US9706755B2",
  "about": "“Controlled odor mimic permeation system” (dated 2017)",
  "key": {"[1]": {"tested_on": "explosives detection canines", "assay": "First field test of gauze mimic aids, COMPS kits (Table 94)", "conditions": "100 μl at 10% w/v Acetonitrile on Gauze in 2 mil LDPE, Electrical Box"}, "[2]": {"tested_on": "trained and certified explosives detection canines", "assay": "Canine field trials, active odor determination (odor line-up of hide boxes)"}, "[3]": {"tested_on": "explosives detection canines", "assay": "Overall / individual canine performance (alerts plus interests over all hides; real explosives, odor chemicals, NESTT silica and petrolatum aids; Tables 69-72)", "conditions": "for total number of alerts or interest / total number of hides: interest reported as alert; for overall canine population response to odor chemical (alert/interest): Table 70, all field tests pooled, canines 120, 140, 141 discounted; for Total, alerts or interest / hides / Total, alerts or interest as percent of hides: all canines 101-144; for Adjusted Total, alerts or interest / hides / Adjusted Total, alerts or interest as percent of hides: removing canines 120, 140 & 141"}, "[4]": {"conditions": "Dog Number 120 (20/28 false alerts, discounted from adjusted totals)"}, "[5]": {"conditions": "Dog Number 140 (4/6 false alerts, discounted from adjusted totals)"}, "[6]": {"conditions": "Dog Number 141 (4/6 false alerts, discounted from adjusted totals)"}},
  "data": [
    {"smiles": "c1ccc(Nc2ccccc2)cc1", "values": [
      {"measurement": "Interest (dog numbers)", "setting": "[1]", "result": 143},
      {"measurement": "alerts (canines alerting / canines tested)", "setting": "[2]; Table 56, 100 ug", "result": "1/7"},
      {"measurement": "interests (canines showing interest / canines tested)", "setting": "[2]; Table 56, 100 ug", "result": "1/7"},
      {"measurement": "% Alert", "setting": "[2]; Table 56, Quart Can, 100 μl at 1000 ppm Acetonitrile on Cotton in Open Vial, 7 canines", "result": 14.3, "unit": "%"},
      {"measurement": "interests (canines showing interest / canines tested)", "setting": "[2]; Table 57, 5.0 mg", "result": "1/9"},
      {"measurement": "total number of alerts or interest / total number of hides", "setting": "[3]; Dog Number 101", "result": "0/1"},
      {"measurement": "total number of alerts or interest / total number of hides", "setting": "[3]; Dog Number 102", "result": "1/1"},
      {"measurement": "total number of alerts or interest / total number of hides", "setting": "[3]; Dog Number 103", "result": "0/1"},
      {"measurement": "total number of alerts or interest / total number of hides", "setting": "[3]; Dog Number 104", "result": "0/1"},
      {"measurement": "total number of alerts or interest / total number of hides", "setting": "[3]; Dog Number 106", "result": "0/1"},
      {"measurement": "total number of alerts or interest / total number of hides", "setting": "[3]; Dog Number 108", "result": "1/1"},
      {"measurement": "total number of alerts or interest / total number of hides", "setting": "[3]; Dog Number 109", "result": "0/1"},
      {"measurement": "total number of alerts or interest / total number of hides", "setting": "[3]; Dog Number 110", "result": "0/1"},
      {"measurement": "total number of alerts or interest / total number of hides", "setting": "[3]; Dog Number 113", "result": "0/2"},
      {"measurement": "total number of alerts or interest / total number of hides", "setting": "[3]; Dog Number 116", "result": "0/2"},
      {"measurement": "total number of alerts or interest / total number of hides", "setting": "[3]; Dog Number 117", "result": "0/1"},
      {"measurement": "total number of alerts or interest / total number of hides", "setting": "[3]; Dog Number 118", "result": "1/2"},
      {"measurement": "total number of alerts or interest / total number of hides", "setting": "[3]; Dog Number 119", "result": "1/2"},
      {"measurement": "total number of alerts or interest / total number of hides", "setting": "[3]; [4]", "result": "3/3"},
      {"measurement": "total number of alerts or interest / total number of hides", "setting": "[3]; [5]", "result": "1/1"},
      {"measurement": "total number of alerts or interest / total number of hides", "setting": "[3]; [6]", "result": "1/1"},
      {"measurement": "total number of alerts or interest / total number of hides", "setting": "[3]; Dog Number 142", "result": "1/1"},
      {"measurement": "total number of alerts or interest / total number of hides", "setting": "[3]; Dog Number 143", "result": "1/1"},
      {"measurement": "total number of alerts or interest / total number of hides", "setting": "[3]; Dog Number 144", "result": "1/1"},
      {"measurement": "overall canine population response to odor chemical (alert/interest)", "setting": "[3]", "result": 35.0, "unit": "%"},
      {"measurement": "Total, alerts or interest / hides", "setting": "[3]", "result": "12/25"},
      {"measurement": "Total, alerts or interest as percent of hides", "setting": "[3]", "result": 48.0, "unit": "%"},
      {"measurement": "Adjusted Total, alerts or interest / hides", "setting": "[3]", "result": "7/20"},
      {"measurement": "Adjusted Total, alerts or interest as percent of hides", "setting": "[3]", "result": 35.0, "unit": "%"}
    ]},
    {"smiles": "CC(C)([N+](=O)[O-])C(C)(C)[N+](=O)[O-]", "values": [
      {"measurement": "interests (canines showing interest / canines tested)", "setting": "[2]; Table 55, 5.0 mg", "result": "2/11"},
      {"measurement": "interests (canines showing interest / canines tested)", "setting": "[2]; Table 56, 100 ug", "result": "1/7"},
      {"measurement": "interests (canines showing interest / canines tested)", "setting": "[2]; Table 57, 5.0 mg", "result": "0/9"},
      {"measurement": "total number of alerts or interest / total number of hides", "setting": "[3]; Dog Number 101", "result": "0/1"},
      {"measurement": "total number of alerts or interest / total number of hides", "setting": "[3]; Dog Number 102", "result": "1/1"},
      {"measurement": "total number of alerts or interest / total number of hides", "setting": "[3]; Dog Number 103", "result": "0/2"},
      {"measurement": "total number of alerts or interest / total number of hides", "setting": "[3]; Dog Number 104", "result": "0/1"},
      {"measurement": "total number of alerts or interest / total number of hides", "setting": "[3]; Dog Number 106", "result": "0/1"},
      {"measurement": "total number of alerts or interest / total number of hides", "setting": "[3]; Dog Number 108", "result": "0/2"},
      {"measurement": "total number of alerts or interest / total number of hides", "setting": "[3]; Dog Number 109", "result": "0/4"},
      {"measurement": "total number of alerts or interest / total number of hides", "setting": "[3]; Dog Number 110", "result": "0/1"},
      {"measurement": "total number of alerts or interest / total number of hides", "setting": "[3]; Dog Number 111", "result": "0/1"},
      {"measurement": "total number of alerts or interest / total number of hides", "setting": "[3]; Dog Number 112", "result": "0/1"},
      {"measurement": "total number of alerts or interest / total number of hides", "setting": "[3]; Dog Number 113", "result": "0/2"},
      {"measurement": "total number of alerts or interest / total number of hides", "setting": "[3]; Dog Number 116", "result": "0/3"},
      {"measurement": "total number of alerts or interest / total number of hides", "setting": "[3]; Dog Number 117", "result": "0/2"},
      {"measurement": "total number of alerts or interest / total number of hides", "setting": "[3]; Dog Number 118", "result": "1/4"},
      {"measurement": "total number of alerts or interest / total number of hides", "setting": "[3]; Dog Number 119", "result": "0/3"},
      {"measurement": "total number of alerts or interest / total number of hides", "setting": "[3]; [4]", "result": "4/4"},
      {"measurement": "total number of alerts or interest / total number of hides", "setting": "[3]; Dog Number 121", "result": "1/1"},
      {"measurement": "total number of alerts or interest / total number of hides", "setting": "[3]; Dog Number 124", "result": "1/1"},
      {"measurement": "total number of alerts or interest / total number of hides", "setting": "[3]; Dog Number 126", "result": "0/2"},
      {"measurement": "total number of alerts or interest / total number of hides", "setting": "[3]; Dog Number 127", "result": "0/2"},
      {"measurement": "total number of alerts or interest / total number of hides", "setting": "[3]; Dog Number 129", "result": "0/1"},
      {"measurement": "total number of alerts or interest / total number of hides", "setting": "[3]; Dog Number 133", "result": "0/1"},
      {"measurement": "total number of alerts or interest / total number of hides", "setting": "[3]; [5]", "result": "1/1"},
      {"measurement": "total number of alerts or interest / total number of hides", "setting": "[3]; [6]", "result": "1/1"},
      {"measurement": "total number of alerts or interest / total number of hides", "setting": "[3]; Dog Number 142", "result": "1/1"},
      {"measurement": "total number of alerts or interest / total number of hides", "setting": "[3]; Dog Number 144", "result": "0/1"},
      {"measurement": "overall canine population response to odor chemical (alert/interest)", "setting": "[3]", "result": 12.5, "unit": "%"},
      {"measurement": "Total, alerts or interest / hides", "setting": "[3]", "result": "11/45"},
      {"measurement": "Total, alerts or interest as percent of hides", "setting": "[3]", "result": 24.4, "unit": "%"},
      {"measurement": "Adjusted Total, alerts or interest / hides", "setting": "[3]", "result": "5/39"},
      {"measurement": "Adjusted Total, alerts or interest as percent of hides", "setting": "[3]", "result": 12.8, "unit": "%"}
    ]}
  ]
}
